Source: patent publication US20250345446A1 (Draupnir Bio ApS, priority 2022, published 2025)

The chains behind the UniProt entries cited, without tags or fusion partners. A line that says so, or that is headed by a name, gives the form on record, which may keep a tag or linker.
UniProt Q99523, with tags, fused parts or gaps V650M: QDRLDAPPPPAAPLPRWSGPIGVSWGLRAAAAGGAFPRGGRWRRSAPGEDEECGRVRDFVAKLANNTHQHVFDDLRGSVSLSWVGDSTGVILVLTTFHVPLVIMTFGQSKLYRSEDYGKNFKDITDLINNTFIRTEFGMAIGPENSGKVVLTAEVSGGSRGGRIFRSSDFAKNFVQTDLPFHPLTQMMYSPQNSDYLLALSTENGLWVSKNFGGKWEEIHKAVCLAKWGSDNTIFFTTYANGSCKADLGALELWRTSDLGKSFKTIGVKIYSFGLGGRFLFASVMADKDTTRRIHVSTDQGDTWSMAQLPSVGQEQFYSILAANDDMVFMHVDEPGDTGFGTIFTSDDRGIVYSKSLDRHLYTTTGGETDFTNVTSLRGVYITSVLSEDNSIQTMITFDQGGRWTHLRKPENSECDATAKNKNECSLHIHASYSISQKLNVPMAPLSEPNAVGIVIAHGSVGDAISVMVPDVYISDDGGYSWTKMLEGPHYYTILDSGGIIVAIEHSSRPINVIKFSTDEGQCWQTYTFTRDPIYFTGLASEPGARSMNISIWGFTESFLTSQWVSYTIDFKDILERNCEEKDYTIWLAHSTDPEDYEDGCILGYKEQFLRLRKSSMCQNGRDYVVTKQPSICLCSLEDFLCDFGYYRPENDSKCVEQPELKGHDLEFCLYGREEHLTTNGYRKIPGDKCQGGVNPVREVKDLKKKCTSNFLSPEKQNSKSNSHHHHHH

Biological target: T1, soluble ectodomain of sortilin-6his (Homo sapiens, UniProt Q99523, V650M)
T1 construct: the soluble ectodomain of sortilin-6his is measured by microscale thermophoresis (MST)
Test: MST binding to soluble ectodomain of sortilin-6his
Settings: Table 3, monofunctional peptides, read-out: KD score, binding to sortilin (Kd)

CC(C)C[C@H](NC(=O)[C@H](CC(C)C)NC(=O)[C@H](CCC(N)=O)NC(=O)[C@@H](N)CC(C)C)C(=O)O [compound 40] was tested, and the Kd was 0.25 to 2.5 µM.
